The text below walks through data of patent US12070444B2, “Modulation of molecular markers using S-equol” (Board of Regents, The University of Texas System, priority 2020, dated 2024).

Protein sequences, listed by entry. Tags and fused reporters are not part of them.
UniProt Q92731, whole entry: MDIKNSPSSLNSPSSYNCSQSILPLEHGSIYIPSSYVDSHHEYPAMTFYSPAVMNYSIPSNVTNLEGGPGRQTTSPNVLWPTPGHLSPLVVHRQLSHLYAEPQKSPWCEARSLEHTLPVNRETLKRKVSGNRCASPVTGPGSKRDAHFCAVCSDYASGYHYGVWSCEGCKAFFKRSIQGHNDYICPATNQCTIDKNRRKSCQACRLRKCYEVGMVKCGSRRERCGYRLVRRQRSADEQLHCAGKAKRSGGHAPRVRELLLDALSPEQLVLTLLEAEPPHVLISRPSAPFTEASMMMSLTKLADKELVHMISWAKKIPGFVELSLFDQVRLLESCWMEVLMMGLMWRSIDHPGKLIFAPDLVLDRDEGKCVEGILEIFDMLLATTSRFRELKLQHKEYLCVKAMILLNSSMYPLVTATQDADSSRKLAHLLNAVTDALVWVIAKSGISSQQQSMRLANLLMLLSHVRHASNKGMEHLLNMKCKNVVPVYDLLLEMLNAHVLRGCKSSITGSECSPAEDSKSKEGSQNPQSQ

The test concerns the target T1, ERβ pY36 (Homo sapiens, UniProt Q92731).
T1 construct: host or cells: MDA-MB-231 (human TNBC cell line)
Briefly: pY36-specific phosphorylation signal of ERβ in MDA-MB-231 cells. The format is cell-based. Conditions: MDA-MB-231 cells (FIG. 16A). An excerpt:
FIG. 16. […] See, Yuan et al. (2016) listed below, which is incorporated by reference herein for all purposes.

As to `C[C@]12CC[C@@H]3c4ccc(O)cc4CC[C@H]3[C@@H]1CC[C@@H]2O` [17-β-estradiol, reference compound], the pY36-specific phosphorylation signal entry is “enhanced”.
